Measurements reported in PMC10104807, “Modulation of tau tubulin kinases (TTBK1 and TTBK2) impacts ciliogenesis” (Scientific Reports, 2023).
Values joined by “and” are separate entries in the source; they are usually repeats but may differ in a detail not shown here. Equal entries are not always repeated.

The chains behind the UniProt entries cited, without tags or fusion partners. Residues count along the entry.
UniProt Q5TCY1, whole entry: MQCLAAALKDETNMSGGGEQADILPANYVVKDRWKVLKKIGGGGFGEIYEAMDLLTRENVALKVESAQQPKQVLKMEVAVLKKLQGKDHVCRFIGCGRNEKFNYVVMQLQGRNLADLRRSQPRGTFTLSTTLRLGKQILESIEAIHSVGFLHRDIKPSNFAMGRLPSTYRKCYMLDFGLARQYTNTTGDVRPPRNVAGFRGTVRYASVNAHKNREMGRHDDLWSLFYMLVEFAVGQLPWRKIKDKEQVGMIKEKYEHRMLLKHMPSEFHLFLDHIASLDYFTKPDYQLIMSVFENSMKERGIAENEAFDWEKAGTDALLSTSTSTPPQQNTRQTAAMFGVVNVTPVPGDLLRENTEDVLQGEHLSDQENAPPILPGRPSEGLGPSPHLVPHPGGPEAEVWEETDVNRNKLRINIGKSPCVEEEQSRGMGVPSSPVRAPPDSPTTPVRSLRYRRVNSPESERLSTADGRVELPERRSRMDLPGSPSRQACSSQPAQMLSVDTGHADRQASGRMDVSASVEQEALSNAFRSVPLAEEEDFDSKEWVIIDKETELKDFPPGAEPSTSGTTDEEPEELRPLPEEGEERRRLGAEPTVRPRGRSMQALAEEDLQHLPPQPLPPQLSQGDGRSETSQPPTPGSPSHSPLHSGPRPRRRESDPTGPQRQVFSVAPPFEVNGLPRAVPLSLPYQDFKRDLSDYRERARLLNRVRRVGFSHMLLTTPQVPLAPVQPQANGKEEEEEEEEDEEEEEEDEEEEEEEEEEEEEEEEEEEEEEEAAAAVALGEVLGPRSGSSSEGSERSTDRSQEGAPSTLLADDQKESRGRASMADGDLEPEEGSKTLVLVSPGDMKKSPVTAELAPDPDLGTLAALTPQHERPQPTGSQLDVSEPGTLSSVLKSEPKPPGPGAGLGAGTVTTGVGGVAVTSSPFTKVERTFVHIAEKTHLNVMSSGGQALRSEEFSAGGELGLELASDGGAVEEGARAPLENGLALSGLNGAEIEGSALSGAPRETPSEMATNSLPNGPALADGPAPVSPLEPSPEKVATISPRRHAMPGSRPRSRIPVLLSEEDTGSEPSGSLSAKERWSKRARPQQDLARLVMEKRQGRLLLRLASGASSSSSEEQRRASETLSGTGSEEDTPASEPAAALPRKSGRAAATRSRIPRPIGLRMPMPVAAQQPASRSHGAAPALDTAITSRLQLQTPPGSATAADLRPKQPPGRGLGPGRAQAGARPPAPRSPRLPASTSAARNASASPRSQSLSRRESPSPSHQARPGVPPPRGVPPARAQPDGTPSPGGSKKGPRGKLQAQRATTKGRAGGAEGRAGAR
UniProt Q5TCY1, 13-320 limits assumed: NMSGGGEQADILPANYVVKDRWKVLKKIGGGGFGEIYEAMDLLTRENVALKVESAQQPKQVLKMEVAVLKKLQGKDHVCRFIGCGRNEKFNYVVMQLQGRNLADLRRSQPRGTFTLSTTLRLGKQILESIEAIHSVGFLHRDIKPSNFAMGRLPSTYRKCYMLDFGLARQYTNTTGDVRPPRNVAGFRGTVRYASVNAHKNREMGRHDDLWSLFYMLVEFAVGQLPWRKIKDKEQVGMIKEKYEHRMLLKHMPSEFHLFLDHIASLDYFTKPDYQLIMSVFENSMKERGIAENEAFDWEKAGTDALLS
UniProt Q9UL54, whole entry: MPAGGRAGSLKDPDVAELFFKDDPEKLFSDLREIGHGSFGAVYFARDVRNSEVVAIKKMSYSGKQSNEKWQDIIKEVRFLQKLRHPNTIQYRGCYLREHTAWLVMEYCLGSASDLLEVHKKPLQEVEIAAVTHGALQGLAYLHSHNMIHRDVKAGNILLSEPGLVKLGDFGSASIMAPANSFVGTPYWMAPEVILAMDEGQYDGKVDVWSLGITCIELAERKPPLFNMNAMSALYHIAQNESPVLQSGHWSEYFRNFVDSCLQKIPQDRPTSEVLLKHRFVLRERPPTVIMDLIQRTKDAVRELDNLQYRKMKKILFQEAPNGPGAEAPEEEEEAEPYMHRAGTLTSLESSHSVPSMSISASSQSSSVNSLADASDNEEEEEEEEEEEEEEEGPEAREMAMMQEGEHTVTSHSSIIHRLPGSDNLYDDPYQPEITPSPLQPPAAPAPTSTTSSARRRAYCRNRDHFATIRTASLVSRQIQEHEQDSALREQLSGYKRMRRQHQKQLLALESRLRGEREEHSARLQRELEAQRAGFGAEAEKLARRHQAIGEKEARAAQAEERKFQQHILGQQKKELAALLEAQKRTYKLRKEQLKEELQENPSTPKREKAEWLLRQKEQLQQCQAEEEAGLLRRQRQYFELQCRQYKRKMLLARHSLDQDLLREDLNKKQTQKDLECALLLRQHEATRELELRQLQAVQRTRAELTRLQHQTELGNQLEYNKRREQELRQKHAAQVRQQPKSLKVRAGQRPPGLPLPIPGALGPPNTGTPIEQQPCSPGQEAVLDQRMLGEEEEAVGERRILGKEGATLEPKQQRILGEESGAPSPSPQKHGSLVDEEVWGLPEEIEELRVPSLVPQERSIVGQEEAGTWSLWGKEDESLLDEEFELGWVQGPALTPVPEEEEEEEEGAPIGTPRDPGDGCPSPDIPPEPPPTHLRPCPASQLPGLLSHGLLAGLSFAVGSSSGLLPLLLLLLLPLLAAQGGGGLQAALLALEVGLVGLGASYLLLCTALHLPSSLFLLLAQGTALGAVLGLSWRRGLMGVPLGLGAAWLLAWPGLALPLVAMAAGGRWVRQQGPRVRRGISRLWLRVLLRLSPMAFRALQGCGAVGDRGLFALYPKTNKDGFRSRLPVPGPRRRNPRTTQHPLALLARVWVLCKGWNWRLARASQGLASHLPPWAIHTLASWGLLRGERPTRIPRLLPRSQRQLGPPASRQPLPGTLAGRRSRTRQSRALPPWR
UniProt Q96PN8, whole entry: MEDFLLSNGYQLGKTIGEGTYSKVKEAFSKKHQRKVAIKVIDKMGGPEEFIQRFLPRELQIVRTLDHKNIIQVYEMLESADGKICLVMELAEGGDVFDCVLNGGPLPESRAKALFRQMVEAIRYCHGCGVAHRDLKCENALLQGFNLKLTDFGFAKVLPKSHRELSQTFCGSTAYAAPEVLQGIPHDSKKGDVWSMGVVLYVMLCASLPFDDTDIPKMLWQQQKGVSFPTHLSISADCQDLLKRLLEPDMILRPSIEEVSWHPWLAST
UniProt Q8TBX8, whole entry: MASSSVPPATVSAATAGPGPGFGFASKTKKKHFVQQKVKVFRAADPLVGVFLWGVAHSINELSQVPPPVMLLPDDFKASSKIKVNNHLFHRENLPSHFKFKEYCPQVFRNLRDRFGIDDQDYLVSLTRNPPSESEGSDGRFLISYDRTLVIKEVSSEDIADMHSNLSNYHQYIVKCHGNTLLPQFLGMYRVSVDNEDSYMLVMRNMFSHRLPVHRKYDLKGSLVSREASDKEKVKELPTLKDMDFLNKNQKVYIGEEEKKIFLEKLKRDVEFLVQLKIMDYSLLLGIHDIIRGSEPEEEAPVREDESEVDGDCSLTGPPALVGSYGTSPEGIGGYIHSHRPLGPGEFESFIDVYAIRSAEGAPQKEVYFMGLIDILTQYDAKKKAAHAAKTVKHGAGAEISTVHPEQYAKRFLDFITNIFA
UniProt O96013, whole entry: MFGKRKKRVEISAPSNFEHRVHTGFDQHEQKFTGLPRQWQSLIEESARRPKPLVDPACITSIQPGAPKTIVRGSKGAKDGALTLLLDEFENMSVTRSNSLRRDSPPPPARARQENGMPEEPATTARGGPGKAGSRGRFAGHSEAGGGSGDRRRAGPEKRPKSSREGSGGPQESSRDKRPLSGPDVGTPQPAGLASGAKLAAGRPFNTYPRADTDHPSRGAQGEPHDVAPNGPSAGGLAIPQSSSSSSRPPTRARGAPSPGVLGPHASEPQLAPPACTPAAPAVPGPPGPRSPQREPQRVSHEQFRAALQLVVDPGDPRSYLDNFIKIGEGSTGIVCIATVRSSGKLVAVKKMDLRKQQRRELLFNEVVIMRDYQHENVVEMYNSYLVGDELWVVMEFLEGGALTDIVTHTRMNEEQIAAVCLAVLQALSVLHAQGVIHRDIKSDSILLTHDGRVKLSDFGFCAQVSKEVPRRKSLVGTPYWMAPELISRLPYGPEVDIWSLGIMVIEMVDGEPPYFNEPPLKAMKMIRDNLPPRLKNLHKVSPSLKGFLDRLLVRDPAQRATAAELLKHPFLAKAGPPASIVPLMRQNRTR
UniProt Q6IQ55, whole entry: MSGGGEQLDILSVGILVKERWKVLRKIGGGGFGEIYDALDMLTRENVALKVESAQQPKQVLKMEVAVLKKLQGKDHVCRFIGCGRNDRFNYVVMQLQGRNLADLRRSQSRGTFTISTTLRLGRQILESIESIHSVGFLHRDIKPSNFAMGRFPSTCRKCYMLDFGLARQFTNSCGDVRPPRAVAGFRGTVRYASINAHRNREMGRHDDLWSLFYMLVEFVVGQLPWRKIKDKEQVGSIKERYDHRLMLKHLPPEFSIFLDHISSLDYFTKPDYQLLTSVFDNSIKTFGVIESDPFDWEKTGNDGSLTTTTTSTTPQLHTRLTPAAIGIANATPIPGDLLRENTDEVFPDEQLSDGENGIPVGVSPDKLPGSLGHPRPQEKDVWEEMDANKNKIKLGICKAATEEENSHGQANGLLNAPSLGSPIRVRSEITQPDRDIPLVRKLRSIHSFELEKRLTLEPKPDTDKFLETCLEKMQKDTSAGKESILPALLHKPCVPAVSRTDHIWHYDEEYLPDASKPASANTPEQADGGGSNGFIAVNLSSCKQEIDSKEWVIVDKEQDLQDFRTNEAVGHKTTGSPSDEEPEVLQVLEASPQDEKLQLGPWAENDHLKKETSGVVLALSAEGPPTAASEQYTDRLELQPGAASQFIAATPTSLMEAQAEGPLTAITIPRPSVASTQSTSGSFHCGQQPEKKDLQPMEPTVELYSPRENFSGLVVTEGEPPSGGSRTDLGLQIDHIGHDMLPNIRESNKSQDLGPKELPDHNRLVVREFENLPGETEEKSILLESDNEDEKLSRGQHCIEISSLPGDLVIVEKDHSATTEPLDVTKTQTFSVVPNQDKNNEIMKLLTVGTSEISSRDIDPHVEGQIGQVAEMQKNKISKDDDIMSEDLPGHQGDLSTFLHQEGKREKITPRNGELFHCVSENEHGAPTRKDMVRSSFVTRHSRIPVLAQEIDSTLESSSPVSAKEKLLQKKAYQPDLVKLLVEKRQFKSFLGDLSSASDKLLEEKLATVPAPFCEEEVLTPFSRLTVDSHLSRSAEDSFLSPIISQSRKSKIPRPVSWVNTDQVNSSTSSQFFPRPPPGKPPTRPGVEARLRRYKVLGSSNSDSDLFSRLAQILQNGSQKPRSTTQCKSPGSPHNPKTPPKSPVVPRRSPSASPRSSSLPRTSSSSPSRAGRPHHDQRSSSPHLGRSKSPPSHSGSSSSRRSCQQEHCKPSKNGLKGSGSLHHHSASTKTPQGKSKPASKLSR
UniProt Q7L7X3, whole entry: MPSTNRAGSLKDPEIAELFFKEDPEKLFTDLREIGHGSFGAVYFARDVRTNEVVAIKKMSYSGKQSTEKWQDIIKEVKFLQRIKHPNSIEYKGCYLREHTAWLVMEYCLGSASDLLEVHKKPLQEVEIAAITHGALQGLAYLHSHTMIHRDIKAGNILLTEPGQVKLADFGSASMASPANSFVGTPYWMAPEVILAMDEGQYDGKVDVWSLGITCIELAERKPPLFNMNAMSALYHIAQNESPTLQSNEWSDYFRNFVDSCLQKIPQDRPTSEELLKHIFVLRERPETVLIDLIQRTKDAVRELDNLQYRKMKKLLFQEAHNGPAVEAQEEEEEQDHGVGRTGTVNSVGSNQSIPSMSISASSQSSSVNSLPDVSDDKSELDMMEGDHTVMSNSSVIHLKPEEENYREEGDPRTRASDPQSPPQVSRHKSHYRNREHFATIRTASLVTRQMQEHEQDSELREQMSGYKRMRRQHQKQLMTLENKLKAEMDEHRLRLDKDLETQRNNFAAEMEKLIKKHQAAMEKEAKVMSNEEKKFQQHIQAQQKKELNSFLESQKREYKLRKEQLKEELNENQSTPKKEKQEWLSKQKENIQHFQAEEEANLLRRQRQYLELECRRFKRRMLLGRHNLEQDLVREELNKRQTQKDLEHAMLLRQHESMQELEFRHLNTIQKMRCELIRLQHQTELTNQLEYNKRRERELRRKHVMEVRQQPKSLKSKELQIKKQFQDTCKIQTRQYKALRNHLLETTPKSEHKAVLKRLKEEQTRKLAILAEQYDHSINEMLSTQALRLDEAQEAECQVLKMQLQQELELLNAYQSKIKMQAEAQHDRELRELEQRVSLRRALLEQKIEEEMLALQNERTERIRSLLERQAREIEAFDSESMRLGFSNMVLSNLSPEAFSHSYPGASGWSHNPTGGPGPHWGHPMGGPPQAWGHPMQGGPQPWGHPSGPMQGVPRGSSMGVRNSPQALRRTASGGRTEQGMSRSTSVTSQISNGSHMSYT

Tests used:
[1] = test system: phospho-TDP-43 (Ser409/410); test: Western blot of SH-SY5Y cells, phospho-TDP-43
[2] = target: TTBK1 kinase domain (Homo sapiens, UniProt Q5TCY1); test: Thermal shift assay; format: binding; conditions: for ΔTm TTBK1: kinase domain 2 µM, inhibitor 10 µM
[3] = target: CSNK1E (Homo sapiens, UniProt P49674); test: DiscoverX scanMAX binding assay; conditions: 1 μM
[4] = target: T1, TAOK2 (Homo sapiens, UniProt Q9UL54); test: DiscoverX scanMAX binding assay; conditions: 1 μM
[5] = target: T2, TSSK3 (Homo sapiens, UniProt Q96PN8); test: DiscoverX scanMAX binding assay; conditions: 1 μM
[6] = target: YSK4 (Homo sapiens, UniProt Q56UN5); test: DiscoverX scanMAX binding assay; conditions: 1 μM
[7] = target: PIP5K2C (Homo sapiens, UniProt Q8TBX8); test: DiscoverX scanMAX binding assay; conditions: 1 μM
[8] = target: CIT (Homo sapiens, UniProt O14578); test: DiscoverX scanMAX binding assay; conditions: 1 μM
[9] = target: PIKfyve (Homo sapiens, UniProt Q9Y2I7); test: DiscoverX scanMAX binding assay; conditions: 1 μM
[10] = test system: SH-SY5Y cells; test: Toxicity in SH-SY5Y cells; format: cell-based; conditions: 24 h treatment with 5 μM
Protocol: Exposure of SH-SY5Y cells to ethacrynic acid (EA) is reported to induce TDP-43 phosphorylation by causing cell death via glutathione depletion[23],[32]. Following a published protocol, we treated SH-SY5Y cells with 5 μM of either 9 or 10 one hour prior to the addition of 40 μM EA[23]. Cells were harvested after 24 h. […] One potential explanation is that our phospho-TDP-43 signal at baseline is robust in control cells. Consistent with the 24 h treatment without EA addition (Fig. S4), total TDP-43 was decreased (~ 44%) by 5 μM of 10, but phospho-TDP-43 was not affected. Limited toxicity was observed after 24 h treatment with 5 μM of 9 or 10. Based on the appearance of the cells and experiments carried out in parallel using our PIKfyve probe, we propose that at 5 μM these compounds are potently inhibiting PIKfyve[33]. As shown in Table S2 and Fig. S1, both compounds bind with high affinity to PIKfyve. PIKfyve inhibition leads to disruption of lysosome function that drives cell death. LysoTracker staining overlaps with the enlarged vesicles observed at the 5 μM dose (Fig. S4), which is consistent with PIKfyve inhibitor treatment[33],[34].
SH-SY5Y cells were exposed to compound for the time period indicated, with or without co-treatment with ethacrynic acid (EA), in Figs. 3/S4/S5 before harvesting lysates. […] Lysates were collected in RIPA, sonicated, and quantified using BCA assay. […]

[11] = target: PAK5 (Homo sapiens, UniProt Q9P286); test: Eurofins enzymatic radiometric kinase assay; format: biochemical; conditions: ATP at Km, duplicate
[12] = target: T1, TAOK2; test: Eurofins enzymatic radiometric kinase assay; format: biochemical; conditions: ATP at Km; for TAOK2 PoC at 1 μM: duplicate
[13] = target: MARK3 (Homo sapiens, UniProt P27448); test: Eurofins enzymatic radiometric kinase assay; format: biochemical; conditions: ATP at Km, duplicate
[14] = target: MARK4 (Homo sapiens, UniProt Q96L34); test: Eurofins enzymatic radiometric kinase assay; format: biochemical; conditions: ATP at Km, duplicate
[15] = target: TAOK3 (Homo sapiens, UniProt Q9H2K8); test: Eurofins enzymatic radiometric kinase assay; format: biochemical; conditions: ATP at Km, duplicate
[16] = target: T2, TSSK3; test: Eurofins enzymatic radiometric kinase assay; format: biochemical; conditions: ATP at Km; for TSSK3 PoC at 1 μM: duplicate
[17] = target: TSSK2 (Homo sapiens, UniProt Q96PF2); test: Eurofins enzymatic radiometric kinase assay; format: biochemical; conditions: ATP at Km, duplicate
[18] = target: PAK4 (Homo sapiens, UniProt O96013); test: Eurofins enzymatic radiometric kinase assay; format: biochemical; conditions: ATP at Km, duplicate
[19] = target: TTBK1 (Homo sapiens, UniProt Q5TCY1); test: Eurofins enzymatic radiometric kinase assay; format: biochemical; conditions: ATP at Km; for TTBK1 PoC: 1 μM, duplicate, lower = greater inhibition
[20] = target: TTBK2 (Homo sapiens, UniProt Q6IQ55); test: Eurofins enzymatic radiometric kinase assay; format: biochemical; conditions: ATP at Km; for TTBK2 PoC: 1 μM, duplicate, lower = greater inhibition
[21] = target: TSSK4 (Homo sapiens, UniProt Q6SA08); test: Eurofins enzymatic radiometric kinase assay; format: biochemical; conditions: ATP at Km, duplicate
[22] = target: PAK6 (Homo sapiens, UniProt Q9NQU5); test: Eurofins enzymatic radiometric kinase assay; format: biochemical; conditions: ATP at Km, duplicate
[23] = target: MAP4K5 (Homo sapiens, UniProt Q9Y4K4); test: Eurofins enzymatic radiometric kinase assay; format: biochemical; conditions: ATP at Km, duplicate
[24] = target: TSSK1 (Homo sapiens, UniProt Q9BXA7); test: Eurofins enzymatic radiometric kinase assay; format: biochemical; conditions: ATP at Km, duplicate
[25] = target: TAOK1 (Homo sapiens, UniProt Q7L7X3); test: Eurofins enzymatic radiometric kinase assay; format: biochemical; conditions: ATP at Km; for TAOK1 PoC at 1 μM: duplicate
[26] = target: PAK3 (Homo sapiens, UniProt O75914); test: Eurofins enzymatic radiometric kinase assay; format: biochemical; conditions: ATP at Km, duplicate
[27] = target: HIPK1 (Homo sapiens, UniProt Q86Z02); test: Eurofins enzymatic radiometric kinase assay; format: biochemical; conditions: ATP at Km, duplicate
[28] = test system: total TDP-43; test: Western blot of SH-SY5Y cells, total TDP-43
[29] = 72 h treatment, 5 μM, one replicate, data not shown
[30] = 5 μM one hour prior to 40 μM ethacrynic acid, harvested after 24 h

Compound | decrease in phospho-TDP-43 expression ([1]; 48 h treatment, up to 5 μM) | ΔTm TTBK1 [2] [°C] | CSNK1E % control at 1000nM / DiscoverX PoC value [3] [% control] | TAOK2 % control at 1000nM / DiscoverX PoC value [4] [% control] | TSSK3 % control at 1000nM / DiscoverX PoC value [5] [% control] | YSK4 % control at 1000nM / DiscoverX PoC value [6] [% control] | PIP5K2C (PI5P4Kγ) % control at 1000nM / DiscoverX PoC value [7] [% control] | CIT (CRIK) % control at 1000nM / DiscoverX PoC value [8] [% control] | PIKFYVE % control at 1000nM / DiscoverX PoC value [9] [% control] | toxicity [10] | PAK5 PoC at 1 μM [11] [PoC] | TAOK2 PoC at 1 μM [12] [PoC] | MARK3 PoC at 1 μM [13] [PoC] | MARK4 PoC at 1 μM [14] [PoC] | TAOK3 PoC at 1 μM [15] [PoC] | TSSK3 PoC at 1 μM [16] [PoC] | TSSK2 PoC at 1 μM [17] [PoC] | PAK4 PoC at 1 μM [18] [PoC] | TTBK1 PoC [19] [PoC] | TTBK2 PoC [20] [PoC] | also measured
CCC(O)(C#Cc1ccc2[nH]c3c(c2c1)-c1nc(N)ncc1CCC3)CC | did not change | 8.5 | 13 | 66 | 24 | 1.1 | 15 | 30 | 0 | Limited toxicity | 60 | 31 | 77 | 60 | 43 | 5 | 76 | 36 | 41 | 17 | change in phospho-TDP-43 expression ([1]; 24 h treatment, up to 5 μM): no changes; decrease in phospho-TDP-43 expression [1, 29]: 13–16%; melting temperature (Tm) shift higher versus AMG28 ([2]; TTBK1/2 thermal shift): 1.2–1.8 °C; IC50 ([12]; read-out: TAOK2 IC50, Enzymatic, Eurofins): 860 nM; IC50 ([16]; read-out: TSSK3 IC50, Enzymatic, Eurofins): 240 nM; IC50 ([19]; read-out: TTBK1 enzymatic IC50, dose–response 9-pt curve): 380 nM and < 600 nM and 384 nM; IC50 ([20]; read-out: TTBK2 enzymatic IC50, dose–response 9-pt curve): 180 nM and < 300 nM and 175 nM; TSSK4 PoC at 1 μM [21]: 102 PoC; PAK6 PoC at 1 μM [22]: 40 PoC; MAP4K5 PoC at 1 μM [23]: 2 PoC; TSSK1 PoC at 1 μM [24]: 38 PoC; TAOK1 PoC at 1 μM [25]: 36 PoC; IC50 ([25]; read-out: TAOK1 IC50, Enzymatic, Eurofins): 780 nM; PAK3 PoC at 1 μM [26]: 103 PoC; HIPK1 PoC at 1 μM [27]: 124 PoC; decrease in total TDP-43 expression ([28]; 24 h treatment, up to 5 μM): no changes; decrease in total TDP-43 expression ([28]; 48 h treatment, up to 5 μM): did not change; decrease in total TDP-43 expression [28, 29]: 13–16%
CCC(C)(O)C#Cc1ccc2[nH]c3c(c2c1)-c1nc(N)ncc1CCC3 (racemic) | ~ 45% | 8.1 | 8.9 | 7.9 | 2.4 | 0 | 0.6 | 2.4 | 0 | Limited toxicity | 17 | 14 | 48 | 39 | 18 | -3 | 58 | 12 | 37 | 18 | effect on phospho-TDP-43 [1, 30]: not affected; TSSK4 PoC at 1 μM [21]: 88 PoC; PAK6 PoC at 1 μM [22]: 14 PoC; MAP4K5 PoC at 1 μM [23]: 1 PoC; TSSK1 PoC at 1 μM [24]: 16 PoC; TAOK1 PoC at 1 μM [25]: 9 PoC; PAK3 PoC at 1 μM [26]: 117 PoC; HIPK1 PoC at 1 μM [27]: 89 PoC; decrease in total TDP-43 [28, 30]: ~ 44%; decrease in total TDP-43 expression ([28]; 24 h treatment, up to 5 μM): ~ 40%; decrease in total TDP-43 expression ([28]; 48 h treatment, up to 5 μM): ~ 60%
